## Ab-91 heavy chain CDR variants: yeast mating affinities

Target peptide (SARS-CoV-2 spike, HR2 region): PDVDLGDISGINAS

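The starting antibody came from a phage panning campaign against this peptide. In library AAYL51, one, two or three CDR residues were substituted; doubles and triples were drawn at random. AlphaSeq pools MATa yeast showing the antibodies with MATalpha yeast showing the peptide. Binding brings cells together so that they mate, and sequencing counts the barcode pairs among the diploids. Each replicate has its own calibration line, from reference interactions of the BCL2 family. The assay was run in three technical replicates.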

The variants keep the light chain, the linker and the frameworks of Ab-91 (scFv order VL, a (GGGGS)3 linker, VH).
VL: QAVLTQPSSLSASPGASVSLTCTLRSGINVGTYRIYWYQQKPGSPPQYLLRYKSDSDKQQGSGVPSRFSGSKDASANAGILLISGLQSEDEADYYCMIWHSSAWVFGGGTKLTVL
VH: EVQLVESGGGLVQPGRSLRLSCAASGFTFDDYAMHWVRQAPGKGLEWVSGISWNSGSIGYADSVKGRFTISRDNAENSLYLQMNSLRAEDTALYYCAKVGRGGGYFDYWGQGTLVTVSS

The whole VH of each variant is written out. The Kd shown is the geometric mean over detected replicates; a lower Kd is a better binder. "not detected" marks a missing value. The strain was present, yet no cells mated with the target were sequenced in any replicate, which points to weak or no binding.

| # | VH | Kd | detected | signal with controls |
|---|---|---|---|---|
| 1 | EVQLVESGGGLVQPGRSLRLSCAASGFTFDDYAMGWVRQAPGKGLEWVSGISWNSGSIGYADKVKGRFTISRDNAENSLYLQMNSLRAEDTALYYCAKVGFGGGYFDYWGQGTLVTVSS | 2.9 µM | 1 of 3 | 1 of 9 |
| 2 | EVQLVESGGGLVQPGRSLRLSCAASGFTFDDYAMHWVRQAPGKGLEWVSGISWNSGWIGYACSVKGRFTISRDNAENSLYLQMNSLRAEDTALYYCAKVGRGGGYSDYWGQGTLVTVSS | not detected | 0 of 3 | 1 of 9 |
| 3 | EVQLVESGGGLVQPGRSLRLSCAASMFTADDYAMTWVRQAPGKGLEWVSGISWNSGSIGYADSVKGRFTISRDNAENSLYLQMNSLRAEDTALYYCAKVGRGGGYFDYWGQGTLVTVSS | 7.6 µM | 1 of 3 | 0 of 9 |
| 4 | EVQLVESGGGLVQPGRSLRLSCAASGFTFDDYPMSWVRQAPGKGLEWVSGISWFSGSIGYADSVKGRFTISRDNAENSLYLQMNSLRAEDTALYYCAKVGRGGGYFDYWGQGTLVTVSS | not detected | 0 of 3 | 0 of 9 |
| 5 | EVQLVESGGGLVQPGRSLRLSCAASGFTFDDYAMHWVRQAPGKGLEWVSGISWNSGPIGYADSVKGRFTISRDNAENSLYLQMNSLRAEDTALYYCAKVGLGEGYFDYWGQGTLVTVSS | not detected | 0 of 3 | 1 of 9 |
| 6 | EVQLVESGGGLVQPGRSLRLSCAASGFTFPDYAMHWVRQAPGKGLEWVSGIVWNSGSIGYADSVKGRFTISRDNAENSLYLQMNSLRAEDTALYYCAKVGRGWGYFDYWGQGTLVTVSS | 91 µM | 1 of 3 | 1 of 9 |
| 7 | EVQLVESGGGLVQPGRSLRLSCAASGFTFDDYAFHWVRQAPGKGLEWVSGISWNFGSIGYADSVKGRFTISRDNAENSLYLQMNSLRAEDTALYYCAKVGRGGGYFVYWGQGTLVTVSS | 6.2 µM | 1 of 3 | 3 of 9 |
| 8 | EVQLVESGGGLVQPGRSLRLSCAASGFTFDDYAMHWVRQAPGKGLEWVSGISWNSGSHGYADEVKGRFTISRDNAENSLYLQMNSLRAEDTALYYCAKVGRGGVYFDYWGQGTLVTVSS | not detected | 0 of 3 | 1 of 9 |
| 9 | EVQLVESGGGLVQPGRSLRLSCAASGFTFDGYAMHWVRQAPGKGLEWVSLISWNSGSIGYADSVKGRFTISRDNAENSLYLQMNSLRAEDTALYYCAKVGRGGGYFAYWGQGTLVTVSS | not detected | 0 of 3 | 0 of 9 |
| 10 | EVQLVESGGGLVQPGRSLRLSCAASMFTFDDYQMHWVRQAPGKGLEWVSGISWNSGSIGYARSVKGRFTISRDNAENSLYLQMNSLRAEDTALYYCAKVGRGGGYFDYWGQGTLVTVSS | not detected | 0 of 3 | 1 of 9 |
| 11 | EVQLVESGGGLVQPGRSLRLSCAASGPTFDDYAMHWVRQAPGKGLEWVSGISWNSGYIGYDDSVKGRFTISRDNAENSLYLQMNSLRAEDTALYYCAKVGRGGGYFDYWGQGTLVTVSS | 90 µM | 2 of 3 | 5 of 9 |
| 12 | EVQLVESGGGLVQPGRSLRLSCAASGFTFDDYAMHWVRQAPGKGLEWVSGISKNVGSIMYADSVKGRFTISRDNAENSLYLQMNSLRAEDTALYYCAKVGRGGGYFDYWGQGTLVTVSS | 290 µM | 3 of 3 | 4 of 9 |
| 13 | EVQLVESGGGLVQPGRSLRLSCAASGFTFDDYAMHWVRQAPGKGLEWVSGISWNSGSIGYAKSVAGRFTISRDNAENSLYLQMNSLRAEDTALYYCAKVGRGGGYKDYWGQGTLVTVSS | 24 µM | 2 of 3 | 1 of 9 |
| 14 | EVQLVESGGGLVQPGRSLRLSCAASNFTFDDYAMHWVRQAPGKGLEWVSGISWPSGSIGHADSVKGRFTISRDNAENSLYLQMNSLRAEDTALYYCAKVGRGGGYFDYWGQGTLVTVSS | not detected | 0 of 3 | 0 of 9 |
| 15 | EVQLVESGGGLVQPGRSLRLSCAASGFEFDDYAMHWVRQAPGKGLEWVSGISWNSGSIGYARSVKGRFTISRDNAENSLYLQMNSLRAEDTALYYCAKKGRGGGYFDYWGQGTLVTVSS | 58 µM | 1 of 3 | 2 of 9 |
| 16 | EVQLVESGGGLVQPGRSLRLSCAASGFTFDDYAMHWVRQAPGKGLEWVSGISPNSGSIGYADSVKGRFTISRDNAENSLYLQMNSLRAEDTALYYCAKWGRGGGYCDYWGQGTLVTVSS | 13 µM | 1 of 3 | 0 of 9 |
| 17 | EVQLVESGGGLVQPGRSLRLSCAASGFTKVDYAMHWVRQAPGKGLEWVSGISWNSGSIGCADSVKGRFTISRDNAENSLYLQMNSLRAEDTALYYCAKVGRGGGYFDYWGQGTLVTVSS | not detected | 0 of 3 | 1 of 9 |
| 18 | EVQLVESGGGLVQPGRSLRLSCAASVFTFDDYAMHWVRQAPGKGLEWVSGWSWNSGSIGYADSVKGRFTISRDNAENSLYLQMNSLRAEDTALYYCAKVGQGGGYFDYWGQGTLVTVSS | 2.8 µM | 1 of 3 | 1 of 9 |
| 19 | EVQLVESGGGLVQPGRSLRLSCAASGFTFDIYAMHWVRQAPGKGLEWVSGISWNSGSIQYADSVTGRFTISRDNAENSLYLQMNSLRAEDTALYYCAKVGRGGGYFDYWGQGTLVTVSS | not detected | 0 of 3 | 1 of 9 |
| 20 | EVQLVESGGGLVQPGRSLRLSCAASGMTFDDYAMHWVRQAPGKGLEWVSGISWNSGSIGYADSVKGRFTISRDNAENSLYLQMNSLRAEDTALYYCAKVTRGGGYFHYWGQGTLVTVSS | 8.4 µM | 1 of 3 | 0 of 9 |
| 21 | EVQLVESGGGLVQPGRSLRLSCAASGFAFDDYAMHWVRQAPGKGLEWVSGIKWNSGSIGYADSVKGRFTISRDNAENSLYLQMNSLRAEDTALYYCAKVGRGGGQFDYWGQGTLVTVSS | 3.1 µM | 1 of 3 | 2 of 9 |
| 22 | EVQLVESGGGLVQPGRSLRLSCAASGFTFDDYAMYWVRQAPGKGLEWVSAISWNSGSIGYADSLKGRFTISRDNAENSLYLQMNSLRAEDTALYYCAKVGRGGGYFDYWGQGTLVTVSS | not detected | 0 of 3 | 3 of 9 |

A selection of 2 entries from above:

| VH | Kd | detected | signal with controls |
|---|---|---|---|
| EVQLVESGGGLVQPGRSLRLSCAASGFTFDDYAMHWVRQAPGKGLEWVSGISWNSGSHGYADEVKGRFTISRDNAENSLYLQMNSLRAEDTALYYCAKVGRGGVYFDYWGQGTLVTVSS | not detected | 0 of 3 | 1 of 9 |
| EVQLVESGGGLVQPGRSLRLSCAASGFEFDDYAMHWVRQAPGKGLEWVSGISWNSGSIGYARSVKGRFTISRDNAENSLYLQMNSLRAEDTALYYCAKKGRGGGYFDYWGQGTLVTVSS | 58 µM | 1 of 3 | 2 of 9 |

Background: pairings of library AAYL51 with three empty control strains gave a value in 21% of cases (median 34 µM, 5th percentile 1.8 µM). Values in that range, when seen in few replicates, are hard to tell from nonspecific mating. The control count says in how many pairings with the empty strains this scFv gave a signal. For reference, the parent read 72 nM as the reference entry and 7.5 nM as a member of this library.

Data: MIT Lincoln Laboratory AlphaSeq set, Engelhart et al. 2022, doi:10.1038/s41597-022-01779-4, as distributed in FLAb.